Assay [1] addresses T1, P2X purinoceptor 4 (Homo sapiens) (UniProt Q99571).
T1 sequence (whole entry): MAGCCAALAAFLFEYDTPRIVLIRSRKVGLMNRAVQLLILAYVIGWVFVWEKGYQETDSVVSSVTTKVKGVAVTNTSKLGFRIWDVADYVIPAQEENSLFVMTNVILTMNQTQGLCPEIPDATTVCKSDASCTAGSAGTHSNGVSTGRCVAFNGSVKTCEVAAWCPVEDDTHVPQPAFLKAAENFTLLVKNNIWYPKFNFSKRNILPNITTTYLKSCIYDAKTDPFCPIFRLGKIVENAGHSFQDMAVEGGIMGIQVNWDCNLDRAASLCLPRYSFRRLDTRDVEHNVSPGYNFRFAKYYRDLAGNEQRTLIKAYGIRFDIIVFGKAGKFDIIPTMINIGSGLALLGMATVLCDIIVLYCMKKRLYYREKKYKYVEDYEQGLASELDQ
Put plainly: Antagonist activity at human P2X4 receptor expressed in 1321N1 cells at 10 uM incubated for 30 mins in presence of ATP by Fluo-4 dye based microplate reader assay relative to control. The assay is classed as cell-based. Also noted: scale not given: the % may be the effect or the level left.

Amino acid sequences for entries named in this document (tags omitted). A change or cut given only in a name is not applied to a line headed by its entry.
UniProt Q99572: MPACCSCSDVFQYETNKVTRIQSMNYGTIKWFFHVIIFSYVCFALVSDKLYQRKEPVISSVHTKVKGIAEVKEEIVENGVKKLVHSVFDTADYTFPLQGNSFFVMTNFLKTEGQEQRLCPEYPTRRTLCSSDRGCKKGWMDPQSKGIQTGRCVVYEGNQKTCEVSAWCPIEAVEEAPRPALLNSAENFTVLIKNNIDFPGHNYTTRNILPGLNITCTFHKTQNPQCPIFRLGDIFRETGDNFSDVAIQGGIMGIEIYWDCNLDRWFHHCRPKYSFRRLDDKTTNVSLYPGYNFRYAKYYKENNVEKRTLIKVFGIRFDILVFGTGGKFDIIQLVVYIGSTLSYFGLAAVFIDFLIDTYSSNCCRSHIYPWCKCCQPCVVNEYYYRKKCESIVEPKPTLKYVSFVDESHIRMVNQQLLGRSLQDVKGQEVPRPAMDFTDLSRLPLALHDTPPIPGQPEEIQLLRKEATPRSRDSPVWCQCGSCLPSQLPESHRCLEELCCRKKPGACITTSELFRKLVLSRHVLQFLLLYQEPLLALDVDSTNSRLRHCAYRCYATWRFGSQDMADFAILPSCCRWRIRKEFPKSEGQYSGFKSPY

Another assay has as its target P2X purinoceptor 7 (Homo sapiens, UniProt Q99572). The assay is described as follows: Antagonist activity at human P2X7 receptor expressed in 1321N1 cells at 10 uM incubated for 30 mins in presence of ATP by Fluo-4 dye based microplate reader assay relative to control. The assay is classed as cell-based. Also on record: scale not given: the % may be the effect or the level left.

`C[C@@H](Nc1cc(N2CCN(C(N)=O)CC2)nc2nc(C3CC3)nn12)c1ccc2ccccc2c1`: the Activity in assay [1] stood at 33%; on P2X purinoceptor 7, 11%.

The values are drawn from ChEMBL document CHEMBL5550216, “Discovery of Triazolopyrimidine Derivatives as Selective P2X3 Receptor Antagonists Binding to an Unprecedented Allosteric Site as Evidenced by Cryo-Electron Microscopy” (J Med Chem, 2024).
